This passage reports Emax, Imax and Activity results from ChEMBL document CHEMBL4433209, “Novel Cyclic Biphalin Analogues by Ruthenium-Catalyzed Ring Closing Metathesis: in Vivo and in Vitro Biological Profile” (2019).

Sequences of proteins named here, by UniProt entry; tags and fusion partners are left off. A change or cut given only in a name is not applied to a line headed by its entry.
UniProt P35372, whole entry, looked up: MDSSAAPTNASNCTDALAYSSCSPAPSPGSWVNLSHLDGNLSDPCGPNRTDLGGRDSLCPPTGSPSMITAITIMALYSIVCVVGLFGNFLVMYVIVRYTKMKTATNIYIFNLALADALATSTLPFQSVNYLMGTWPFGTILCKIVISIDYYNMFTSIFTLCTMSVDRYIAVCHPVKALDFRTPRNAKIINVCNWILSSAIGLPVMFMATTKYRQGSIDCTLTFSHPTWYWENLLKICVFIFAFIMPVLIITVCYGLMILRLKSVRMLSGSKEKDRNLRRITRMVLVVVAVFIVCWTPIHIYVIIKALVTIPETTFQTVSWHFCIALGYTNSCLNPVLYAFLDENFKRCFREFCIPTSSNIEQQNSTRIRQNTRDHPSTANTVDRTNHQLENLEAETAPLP
UniProt P41143, whole entry, looked up: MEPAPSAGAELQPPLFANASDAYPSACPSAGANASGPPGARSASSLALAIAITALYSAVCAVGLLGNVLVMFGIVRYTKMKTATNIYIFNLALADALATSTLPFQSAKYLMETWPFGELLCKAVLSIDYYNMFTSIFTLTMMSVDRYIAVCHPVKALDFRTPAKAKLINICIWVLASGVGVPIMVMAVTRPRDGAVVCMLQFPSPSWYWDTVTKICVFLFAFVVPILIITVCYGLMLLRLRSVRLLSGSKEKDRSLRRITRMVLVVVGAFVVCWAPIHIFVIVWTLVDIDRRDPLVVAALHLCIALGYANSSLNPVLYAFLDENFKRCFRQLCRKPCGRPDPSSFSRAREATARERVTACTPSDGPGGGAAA
UniProt P41145: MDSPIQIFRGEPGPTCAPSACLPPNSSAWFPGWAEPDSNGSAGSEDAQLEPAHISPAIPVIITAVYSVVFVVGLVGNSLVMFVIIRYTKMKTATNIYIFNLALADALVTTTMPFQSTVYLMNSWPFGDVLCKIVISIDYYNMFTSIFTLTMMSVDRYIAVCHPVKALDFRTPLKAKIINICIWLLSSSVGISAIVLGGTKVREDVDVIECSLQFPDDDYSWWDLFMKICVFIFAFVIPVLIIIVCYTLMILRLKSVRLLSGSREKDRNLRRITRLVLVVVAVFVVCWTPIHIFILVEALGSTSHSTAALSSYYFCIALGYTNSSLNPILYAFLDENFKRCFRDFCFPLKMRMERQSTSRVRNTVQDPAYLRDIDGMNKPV

Active and inactive are the calls of the source. The calls are words filed in the database; no cut-off is given here.

The target of experiment [1] is Mu-type opioid receptor (Homo sapiens) (UniProt P35372). As to the kind of experiment: Agonist activity at human mu opioid receptor expressed in CHO cell membranes incubated for 1 hr by [35S]GTPgammaS binding assay relative to DAMGO.
Experiment [2] deals with Delta-type opioid receptor (Homo sapiens) (UniProt P41143). As to the kind of experiment: Antagonist activity at human delta opioid receptor expressed in CHO cell membranes assessed as reduction in SNC80-induced [35S]GTPgammaS binding incubated for 1 hr relative to control. (GTPγS is a poorly hydrolysed GTP analogue; its binding reports G protein activation.)
The target in experiment [3] is Kappa-type opioid receptor (Homo sapiens) (UniProt P41145). As to the kind of experiment: Agonist activity at human kappa opioid receptor expressed in CHO cell membranes incubated for 1 hr by [35S]GTPgammaS binding assay relative to U50,488.
Experiment [4] deals with Delta-type opioid receptor (Homo sapiens) (UniProt P41143). As to the kind of experiment: Antagonist activity at human delta opioid receptor expressed in CHO cells assessed as reduction in SNC80-induced inhibition of forskolin stimulated cAMP accumulation preincubated for 15 mins followed SNC80 and forskolin addition and measured after 10 mins relative to control.
The test system of experiment [5] is Mus musculus. As to the kind of experiment: Analgesic activity in CD1 mouse at 0.15 nmol, icv measured after 60 mins by hot plate test relative to control. In general terms: Thermal pain tests record how soon the animal reacts.
For experiment [6], the system named is Mus musculus. As to the kind of experiment: Analgesic activity in CD1 mouse at 1.5 nmol, iv measured after 45 mins by hot plate test relative to control.

As a reminder, the Emax is the maximal effect, on the per cent scale that the assay sets.

Consider `N[C@@H](Cc1ccc(O)cc1)C(=O)N[C@@H]1C/C=C\C[C@@H](NC(=O)[C@@H](N)Cc2ccc(O)cc2)C(=O)NCC(=O)N[C@@H](Cc2ccccc2)C(=O)NNC(=O)[C@H](Cc2ccccc2)NC(=O)CNC1=O`, for which the Emax is 91% in experiment [1] and 69% in experiment [3]. In addition, the Imax in experiment [2] amounted to 25.6%. In addition, the outcome in experiment [4] was inactive.

For the molecule `C[C@@H](NC(=O)[C@@H](N)Cc1ccc(O)cc1)C(=O)NCC(=O)N[C@@H](Cc1ccccc1)C(=O)NNC(=O)[C@H](Cc1ccccc1)NC(=O)CNC(=O)[C@@H](C)NC(=O)[C@@H](N)Cc1ccc(O)cc1`, the result in the experiment on Mus musculus [5] and in the experiment with Mus musculus [6] was Active.

`N[C@@H](Cc1ccc(O)cc1)C(=O)N[C@@H]1C/C=C/C[C@@H](NC(=O)[C@@H](N)Cc2ccc(O)cc2)C(=O)NCC(=O)N[C@@H](Cc2ccccc2)C(=O)NNC(=O)[C@H](Cc2ccccc2)NC(=O)CNC1=O`: the Emax in experiment [1] worked out at 85.7%; in experiment [3] it was 73.3%. The Imax in experiment [2] is 27.3%. Besides, the outcome in experiment [4] was inactive.
